Data reported in EP4834883A1, “HNRNPA2B1 AGONIST COMPOUND AND USE THEREOF IN TUMOR PREVENTION AND TREATMENT” (dated 2026).

Tests used:
TBK1 and IRF3 = assay: Activation of TBK1 and IRF3 by SDS-PAGE electrophoresis and immunoblotting in A549 lung cancer cells; details: 20 µM, 30 minutes, immunoblotting (Figure 2)
Method: (§1) A549 lung cancer cells (cell density: 1 × 10^5 cells per well) were stimulated with test compound E (prepared as in Example I.5, dissolved in physiological saline) at a concentration of 20 µM for 30 minutes. The subcellular localization of hnRNPA2B1 was detected by immunofluorescence, and the activation of TBK1 and IRF3 was detected by SDS-PAGE electrophoresis and immunoblotting.

hnRNPA2B1 = assay: Nuclear export (subcellular localization) of hnRNPA2B1 by immunofluorescence in A549 lung cancer cells; details: 20 µM, 30 minutes, immunofluorescence (Figure 1)
Method: as §1

B16-F10 melanoma cells [1] = assay: Experimental lung metastasis of B16F10 tumors in mice, in vivo imaging and isolated lungs; details: mice i.v. 5 × 10^4 B16-F10 cells; 10 mg/kg tail vein injection once every three days, three doses, from day 6 (Figures 8 and 9)
Method: Mice (6- to 8-week-old male C57BL/6J mice) were injected via the tail vein with 5 × 10^4 B16-F10 melanoma cells. Starting from day 6 post-injection, compound E (10 mg/kg mouse body weight) was administered via tail vein injection once every three days for a total of three doses. On day 13 post-administration, lung tumor conditions were observed and quantitatively compared using a small animal in vivo imaging system. On day 15, the mice were euthanized, and the lungs were isolated to observe tumor conditions.

[2] = system: LLC (Lewis lung carcinoma) tumor cells; assay: Cytotoxic effect on tumor cells by microscopy and flow cytometry; details: 20 and 40 µM, 36 hours, flow cytometry (Figure 5)
Method: LLC (Lewis lung carcinoma) tumor cells (cell density: 1 × 10^5 cells per well) were stimulated with test compound E at concentrations of 20 and 40 µM. Cell morphology was observed under a microscope at 36 hours post-stimulation, and after cell digestion, the cytotoxic effect of compound E on tumor cells was detected by flow cytometry.

[3] = system: A549, HepG2, LLC, and B16F10 tumor cells; assay: Tumor cell viability/proliferation by CCK-8 assay; details: 20 µM, 24 and 48 hours, CCK-8 (Figure 4)
Method: A549 (non-small cell lung cancer), HepG2 (hepatocellular carcinoma), LLC (Lewis lung carcinoma), and B16F10 (melanoma) tumor cells (cell density: 1 × 10^4 cells per well) were stimulated with test compound E at a concentration of 20 µM. After 24 and 48 hours of stimulation, the cells were lysed, and the effect of compound E on tumor cell viability was detected by CCK-8 assay.

LLC tumor cells = assay: Subcutaneous LLC tumor model in mice, tumor volume and survival; details: mice s.c. 5 × 10^5 LLC cells, 15 mg/kg tail vein injection once every four days, four doses
Method: (§2) Mice (6- to 8-week-old male C57BL/6J mice) were subcutaneously inoculated with 5 × 10^5 LLC tumor cells. Starting from day 10 post-inoculation, compound E (15 mg/kg mouse body weight) was administered via tail vein injection once every four days for a total of four doses. Tumor growth was continuously observed, with tumor volume calculated as (length × width^2)/2, and mouse survival was monitored.

IFN-β = assay: Type I interferon induction in tumor cells, IFN-β protein levels in supernatant by ELISA; details: A549, HepG2, LLC, B16F10 cells; 20 and 40 µM; supernatants at 18 and 24 hours; ELISA (Figure 3)
Method: A549 (non-small cell lung cancer), HepG2 (hepatocellular carcinoma), LLC (Lewis lung carcinoma), and B16F10 (melanoma) tumor cells (cell density: 1 × 10^4 cells per well) were stimulated with test compound E at concentrations of 20 and 40 µM. Cell culture supernatants were collected at 18 and 24 hours post-stimulation, and IFN-β protein levels were detected by ELISA.

B16-F10 melanoma cells [4] = assay: Subcutaneous B16F10 melanoma model in mice, tumor volume; details: mice s.c. 5 × 10^5 B16-F10 cells; 15 mg/kg tail vein injection once every four days, four doses, from day 10
Method: as §2, with “B16-F10 melanoma” for “LLC tumor”, “width^2)/2.” for “width^2)/2, and mouse survival was monitored.”

Compound: CN(C)CCN1C(=O)c2ccc(F)c3c(N4CCN(CCN5CCCC5)CC4)ccc(c23)C1=O
- activation of downstream TBK1 and IRF3 (TBK1 and IRF3): significantly activated
- nuclear export of hnRNPA2B1 (hnRNPA2B1): significantly activated
- experimental lung metastasis of B16F10 tumors (B16-F10 melanoma cells [1]): inhibited experimental lung metastasis of B16F10 tumors
- tumor cell apoptosis (cytotoxic effect) [2]: significantly induced tumor cell apoptosis
- proliferation of multiple tumor cell types (tumor cell viability) [3]: significantly inhibited
- LLC tumor proliferation (tumor volume) (LLC tumor cells; from day 10 (Figure 6)): inhibited LLC tumor proliferation
- survival of tumor-bearing mice (LLC tumor cells; from day 10 (Figure 7)): promoted the survival of tumor-bearing mice
- type I interferon expression (IFN-β protein levels) (IFN-β): significantly activated
- B16F10 tumor proliferation (tumor volume) (B16-F10 melanoma cells [4]): inhibited B16F10 tumor proliferation
